A word on the EC50: it is the concentration that produces a half-maximal response. Low readings indicate a more potent agent, high ones a less potent agent. By IC50 is commonly meant the concentration needed to halve the response being measured. A low value points to greater potency in that assay.

Assay [1] concerns the target human PD-L1 on 293T-h-PDL1 cells (human) (UniProt Q9NZQ7). The assay is described as follows: FACS, hybridoma culture supernatant on 293T-h-PDL1 cells.
Assay [2] deals with fusion protein of the extracellular region of human PD-L1 and human IgG1-FC (human) (UniProt Q9NZQ7). The experiment in a line: FACS blocking of PD-L1-hFc binding to 293T-h-PD1 cells, hybridoma supernatant.

As to “murine antibody 4G7 (A7) (antibody; other documents disagree on this pair)”, in assay [1], the EC50 was determined as 0.543 µg/mL. For the same substance, the IC50 in assay [2] was 3.42 µg/mL.

The values are drawn from patent US20220396624A1 (HC BIOPHARMA SHANGHAI, published 2022).
